{"source": "patent US10301297B2", "about": "“Substituted nicotinimide inhibitors of BTK and their preparation and use in the treatment of cancer, inflammation and autoimmune disease” (GUANGZHOU INNOCARE PHARMA TECH CO., LTD., priority 2013, dated 2019)", "biological_target": "SRC (Homo sapiens (Human), UniProt P12931)", "assay": "kinase binding screen (affinity beads, qPCR readout) at 1000 nM", "data": [{"smiles": "C=CC(=O)N1CCC(c2ccc(C(N)=O)c(-c3ccc(Oc4ccccc4)cc3)n2)CC1", "note": "[Example 3, 6-(1-acryloylpiperidin-4-yl)-2-(4-phenoxyphenyl)nicotinamide]", "values": [{"measurement": "inhibition at 1 µM", "result": 23, "unit": "%"}]}]}
